Reference: US10485739B2, “High strength microcapsules” (ENCAPSYS, LLC, priority 2014, dated 2019)

Experiment: Monomer solubility in water (GC/MS of water phase)
Type: physicochemical
Details: @ 25° C.; monomer equilibrated with deionized water 24 hours
Description: Monomer Solubility in Water
Solubility of the monomers in water is determined by combining 5 g of monomer and 5 g of deionized water in a sealed 20 ml vial for 30 min, after which the sample is allowed to sit at room temperature for 24 hours to establish equilibrium and phase separation of monomer from water. The water phase was then removed and analyzed to determine the monomer concentration GC/MS (7890B GC with a 5977A MSD Mass Spectrophotometer), both from Agilent. Inlet temperature at 270 C. Ramp starting at 100° C. to 320° C. at 10 degrees per min. The mass spec was scanning from a molecular weight of 30-500. The GC column was a Agilent DB-SMS 30M×0.250 mm.

Ethoxylated (4) bisphenol A diacrylate [SR601]
Solubility in water: 450 µg/mL

ethoxylated (30) bisphenol A diacrylate [SR9038]
Solubility in water: soluble
